Experimental data as given in paper PMC7046148 (Scientific Reports, 2020).

Key:
[1] = tested on: XCL-1 hiPSC CRBN KO/KI; test: LPM differentiation assay (FOXF1 high content imaging), XCL-1 CRBN KO/KI clone; format: cell-based, human; conditions: both engineered clones (CRBN KO/KI and SALL4^G416A) versus mock
[2] = tested on: Gibco hiPSCs; test: LPM differentiation assay (FOXF1 high content imaging), Gibco hiPSCs; conditions: thalidomide at 20 µM, atRA at 3 µM, during LPM differentiation

For `CC1=C(/C=C/C(C)=C/C=C/C(C)=C/C(=O)O)C(C)(C)CCC1` [atRA, all-trans retinoic acid], the “right-shift in potency in engineered clones” value [1] was ~ 3 fold and the “reduction of %FOXF1+ cells via high content imaging” value [2] was 90%.
